Laboratory results as given in patent publication US7250397B2, “Antiarrhythmic peptides” (Zealand Pharma A/S, priority 2000, dated 2007).

Test: In vitro stability test in human serum
Format: in vitro ADME
Settings: 37° C., 0.1 mg/ml, mean n=3
Experimental: The stability of peptides is analysed in different plasma and serum types. The peptides are incubated at 37° C. in plasma and samples taken at approx. 9 regular intervals between t=0 and t=156 min are analysed by HPLC.
This is done by subsequent injections of the drug, plasma, and a co-injection with the drug and the plasma, followed by optimisation of the LC method parameters until a satisfactory separation is obtained. Three parallel experiments are performed for each plasma type:100 μl of peptide is mixed with 900 μl plasma at t=0 and incubated at 37° C. (drug-plasma mixture conc. 0.1 mg/ml). Samples of 100 μl of the drug-plasma mixture are removed at appropriate intervals and the degradation stopped by precipitation of the sample with 10 μl MeCN:TFA 50:50 v/v. A control plasma sample without the drug treated in the same manner is also taken. The plasma samples are centrifuged for 15 min. at 12,000 rpm (Eppendorf centrifuge) at ambient temperature. The resulting supernatant solution is transferred to 300 μl HP autosamler vials and analyzed by HPLC. […]
The samples are analyzed in the following order: blank, the peptide at 0.1 mg/mL, the plasma without the peptide, the three parallel samples for t=0, the three parallel samples for t=5 min. the three parallel samples for t=10 min. etc. […]

Ac-D-Tyr-D-Pro-D-4Hyp-Gly-D-Ala-Gly-NH2 [Compound 2]
T1/2: >5 h
